The source of these data is PMC8166883 (Cellular and Molecular Immunology, 2020).

Protein sequences, listed by entry. Tags and fused reporters are not part of them.
UniProt P01375, whole entry: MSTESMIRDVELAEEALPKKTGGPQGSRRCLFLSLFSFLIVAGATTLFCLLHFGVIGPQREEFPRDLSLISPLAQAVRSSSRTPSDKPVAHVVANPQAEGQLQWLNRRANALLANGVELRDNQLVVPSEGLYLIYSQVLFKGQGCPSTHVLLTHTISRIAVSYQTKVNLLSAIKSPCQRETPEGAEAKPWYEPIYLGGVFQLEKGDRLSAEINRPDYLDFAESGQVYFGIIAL

Where a chain is given by its changes, count along the chain named.

For test [1], the target named is T1, FLAG-tagged human tumor necrosis factor α (FLAG-hTNFα) (Homo sapiens, UniProt P01375).
T1 construct: human tumor necrosis factor α
The experiment in a line: SPR; Biacore T200; mAb held by anti-hIgG capture antibodies amine-coupled to a CM5 chip; purified antigen serially diluted in HBS-EP+ (100, 33.3, 11.1, 3.7, 1.23, 0.412 nM) injected 240 s at 30 µL/min, 300 s dissociation; 1:1 Langmuir binding model with mass transfer; KD calculated as kd/ka. The note with it: both partners purified.

Test [2] deals with T2, FLAG-tagged human vascular endothelial growth factor-A (FLAG-hVEGF-A) (Homo sapiens, UniProt P15692-4).
T2 construct: human vascular endothelial growth factor-A; The cell-based assays used bought recombinant hVEGF165 (Pepro Tech), not this construct
The test is described as above. The note with it: both partners purified.

B1: anti-human TNFα clone #314AM-043-01 (after two rounds of affinity maturation of #314) (antibody, V domains shown)
VH: EVQLLESGGGLVQPGGSLRLSCAASGFTFSSYAMSWVRQAPGKGLEWVSAISSSSGGSTYYADSVKGRFTISRDNSKNTLYLQMNSLRAEDTAVYYCARSIVGATLDFDYWGQGTTVTVSS
VL: DIQMTQSPSSLSASVGDRVTITCRASQSISDYLHWYQQKPGKAPKLLIYDASNLESGVPSRFSGSGSGTDFTLTINSLQPEDFATYYCQQYYSTPLTFGQGTKLEIK
Consider B1, for which the binding result in test [1] was “binds”.

B2: anti-hVEGF-A clone C018AM-20 (affinity-matured from C018) (antibody, V domains shown)
VH: EVQLLESGGGLVQPGGSLRLSCAASGFTFSSYAMSWVRQAPGKGLEWVSSISGSGGNTYYADSVKGRFTISRDNSKNTLYLQMNSLRAEDTAVYYCAKDTERIQLWLGFDYWGQGTPVTVSS
VL: B1 VL with Q27E, D31S, H34A, D50A, A51P
For orientation: Kd means the equilibrium constant for the complex coming apart. As for B2, the dissociation constant (Kd) in test [2] is 0.0149 nM.

B3: anti-hVEGF-A clone C018 (antibody, V domains shown)
VH: not shown
VL: B1 VL with Q27E, D31S, H34A, D50A, A51P
In the case of B3, in test [2], the Kd is 1.61 nM.

B4: anti-human TNFα clone #314 (antibody, V domains shown)
VH: not shown
VL: B1 VL
With B4, the binding result in test [1] is “binds”.
